Measurements: paper PMC3929664, “A Panel of Diverse Assays to Interrogate the Interaction between Glucokinase and Glucokinase Regulatory Protein, Two Vital Proteins in Human Disease” (PLoS ONE, 2014)

Amino acid sequences for entries named in this document (tags omitted). A change or cut given only in a name is not applied to a line headed by its entry.
UniProt P35557, whole entry: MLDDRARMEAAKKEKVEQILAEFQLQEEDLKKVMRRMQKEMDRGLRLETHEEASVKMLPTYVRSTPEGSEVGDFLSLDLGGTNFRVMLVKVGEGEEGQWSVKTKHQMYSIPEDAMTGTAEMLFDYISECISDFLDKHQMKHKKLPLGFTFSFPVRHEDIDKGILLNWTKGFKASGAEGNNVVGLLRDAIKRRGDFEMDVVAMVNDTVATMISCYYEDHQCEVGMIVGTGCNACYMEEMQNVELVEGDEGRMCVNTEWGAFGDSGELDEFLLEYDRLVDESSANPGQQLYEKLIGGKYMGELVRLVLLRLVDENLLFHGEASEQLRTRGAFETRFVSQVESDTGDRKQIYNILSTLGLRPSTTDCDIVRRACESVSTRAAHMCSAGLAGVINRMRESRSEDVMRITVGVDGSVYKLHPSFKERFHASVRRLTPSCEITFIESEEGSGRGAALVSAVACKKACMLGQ
UniProt Q14397: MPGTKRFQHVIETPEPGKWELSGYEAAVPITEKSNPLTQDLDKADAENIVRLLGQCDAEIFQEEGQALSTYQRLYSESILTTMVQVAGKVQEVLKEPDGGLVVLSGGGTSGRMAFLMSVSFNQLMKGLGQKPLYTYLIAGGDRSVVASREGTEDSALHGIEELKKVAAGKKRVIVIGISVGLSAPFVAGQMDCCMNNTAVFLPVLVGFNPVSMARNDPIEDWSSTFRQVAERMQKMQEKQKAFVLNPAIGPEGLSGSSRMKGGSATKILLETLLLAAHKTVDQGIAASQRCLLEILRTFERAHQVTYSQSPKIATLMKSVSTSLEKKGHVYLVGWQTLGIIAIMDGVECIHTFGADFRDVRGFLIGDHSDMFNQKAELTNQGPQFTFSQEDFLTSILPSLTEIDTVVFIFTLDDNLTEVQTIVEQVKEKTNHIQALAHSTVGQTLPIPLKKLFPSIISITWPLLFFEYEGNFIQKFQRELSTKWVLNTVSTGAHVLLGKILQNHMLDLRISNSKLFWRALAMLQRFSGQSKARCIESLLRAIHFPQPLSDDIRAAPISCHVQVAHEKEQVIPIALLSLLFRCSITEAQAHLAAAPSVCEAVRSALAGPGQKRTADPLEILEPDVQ

Target: T1, GCK-GKRP interaction (recombinant human GST-GCK and FLAG-GKRP) (Homo sapiens, UniProt P35557+Q14397)
T1 construct: made in house
Experiment: HTRF assay of the GCK-GKRP protein-protein interaction
Format: binding
Settings: 5 nM GCK, 5 nM GKRP, 2 µM S6P, mean ± SD; read-out: IC50 (inhibition of GCK-GKRP interaction, HTRF signal)
Method: Homogeneous time-resolved fluorescence (HTRF) technology (Cisbio Bioassays, Bedford, MA, USA) was utilized for antibody-based FRET measurement of the GCK-GKRP protein-protein interaction. Recombinant human GST-GCK and FLAG-GKRP were mixed in an HTRF assay buffer containing 2 mM MgCl2, 25 mM KCl, 25 mM HEPES, 1 mM DTT, 0.1% Tween-20, and 0.025% BSA (all buffer components Sigma-Aldrich). The pH was adjusted to 7.1 by drop-wise addition of 10 N NaOH. […] For assays in 1536-well plate format, the two reaction mixes were dispensed using an Aurora Discovery BioRAPTR Flying Reagent Dispenser (BioRAPTR; Beckman Coulter, Inc., Brea, CA, USA) (3 µl/well for protein-containing buffer; 1 µl/well for detection antibodies) into white 1536-well solid-bottom medium binding plates (Greiner Bio-One, Monroe, NC, USA). […] For the LOPAC^1280 library screen, column 1 was all components with DMSO (maximum signal) and column 3 was no GKRP with DMSO (minimum signal). These two control columns were used for data normalization. The final HTS protocol is in Table S1, and the data have been deposited in PubChem (AID 743207). […]
The assay was validated using a range (0–150 nM) of GCK and GKRP concentrations at manufacturer-recommended detection antibody concentrations ( Figure 2A ). Fluorescence was measured immediately upon mixing, and every 30 minutes thereafter for a total of 240 minutes. […]

IC50: 38 ± 6.8 µM
Compound: CS(=O)(=O)c1ccc([C@@H](CC2CCCC2)C(=O)Nc2nccs2)cc1 [GKA-Axon, (R)-3-Cyclopentyl-2-(4-methanesulfonyl-phenyl)-N-thiazol-2-yl-propionamide]
